Values quoted from earlier work as cited in US12691107B2, “Methods for the treatment and prevention of lung infections caused by gram-positive bacteria, fungus, or virus by administration of tafenoquine” (priority 2020, dated 2026).

Test system: Staphylococcus aureus
Conditions: cited from earlier work

For COc1cc(NC(C)CCCN)c2ncccc2c1 (stereo not shown) [Primaquine], the MIC is given as 50 microgram/ml.
